Data published in patent publication US20230382911A1 (Hoffmann-La Roche Inc., priority 2021, published 2023).

Amino acid sequences for entries named in this document (tags omitted).
UniProt P31153, whole entry: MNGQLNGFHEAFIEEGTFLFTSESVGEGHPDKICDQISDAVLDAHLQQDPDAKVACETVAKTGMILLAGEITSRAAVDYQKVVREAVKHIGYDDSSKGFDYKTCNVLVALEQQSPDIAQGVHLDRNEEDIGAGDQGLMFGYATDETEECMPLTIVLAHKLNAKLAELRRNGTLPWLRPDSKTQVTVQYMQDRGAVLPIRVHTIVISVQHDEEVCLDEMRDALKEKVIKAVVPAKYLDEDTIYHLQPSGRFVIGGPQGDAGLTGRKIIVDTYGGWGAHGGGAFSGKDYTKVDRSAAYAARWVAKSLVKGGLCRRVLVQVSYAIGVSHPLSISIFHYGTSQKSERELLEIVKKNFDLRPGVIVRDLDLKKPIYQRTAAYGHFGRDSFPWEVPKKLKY

Target: Recombinant human Mat2a (Homo sapiens (Human), UniProt P31153)
Test: Determination of Mat2A activity: 384 well format absorbance-based Mat2A inhibition assay
Settings: read-out: MAT2A IC50; 12.5 nM Mat2A, 100 μM ATP and Methionine, 2% DMSO, 120 minutes at RT, Biomol Green, absorbance at 635 nm
Method: Determination of Mat2A Activity
Measurement of Mat2A inhibition is performed in 384 well format absorbance-based assay.
Recombinant human Mat2a (12.5 nM) and serial diluted compounds in DMSO (range of concentrations from 10 μM to […]) or controls (DMSO) are incubated for 15 minutes at room temperature (RT) in assay buffer containing 50 mM HEPES pH 7.5, 50 mM KCl, 50 mM MgCl2, 0.01% Tween 20 and 10 mM DTT. The reaction is initiated by the addition of the combined substrates ATP and Methionine, each at a final concentration of 100 μM. Final assay condition are 12.5 nM Mat2A, 100 μM ATP and Methionine Substrates and 2% DMSO. After 120 minutes of incubation at RT, the reaction is stopped by the addition of Biomol Green. The absorbance signal is measured at λ=635 nm with a multiplate reader (BMG Pherastar reader or equivalent) after 30 min of equilibration at RT.

## C[C@H]1CCO[C@H]1C(=O)n1nc(N)c2ccc(C3CC3)nc21 (relative stereo)
  IC50: 35 nM
